1 molecule from ChEMBL document CHEMBL5042486, “Discovery and Preclinical Characterization of BIIB091, a Reversible, Selective BTK Inhibitor for the Treatment of Multiple Sclerosis” (J Med Chem, 2022) can be followed below.

The nature of the series: Clearance in Sprague-Dawley rat assessed as hepatic blood flow at 1 mg/kg, iv. The following applies: in vivo. It is filed as ADME, organism-based, Liver.

For `Cc1cc(-c2ccnc(Nc3cnn(C)c3)n2)ccc1CNC(=O)N1CC(OC(C)C)C1`, the QH came to 6%.
